From US20230149366A1, “SOLID DOSAGE FORMS OF TAFAMIDIS” (Nuray Chemicals Private Limited, priority 2021, published 2023)

Conditions: pH 4.5

Solubility: poor solubility/insoluble
Substance: 2-(3,5-dichlorophenyl)-1,3-benzoxazole-6-carboxylic acid mono (1-deoxy-1-methylamino-D-glucitol) [tafamidis meglumine]
